Screening data from PubChem BioAssay.
Compounds with a hit are over-represented: about 1.3% of the library has one in this group of screens.
UUG fidelity – modulators of start codon recognition fidelity in yeast; AID 602363; activity score, % at 18.7 µM; S. cerevisiae UUG-firefly luciferase reporter, luminescence/redox ratio; 0.13% of 350,000 active;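 active = replicate mean at a twofold rise or more, about +100% in these data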;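 note: firefly luciferase made from a UUG start codon reports start codon fidelity; reporter light over untreated wells divided by growth signal over untreated wells; some hits fall short of that in this replicate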
SR-BI DiI-HDL act – enhances SR-BI lipid uptake from DiI-HDL. CHO ldlA[mSR-BI] cells, DiI-HDL uptake fluorescence, 3 h; 100 = double the neutral-control signal. activation, % at 12.5 µM. hit rate 0.096% among 320,000. AID 504775;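 active = mean replicate activation of at least 60% and every replicate at or above 60%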;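 note: 0% = median plate neutral-control signal and 100% = twice that signal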
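Test system: SR-BI-overexpressing, LDLR-lacking CHO cells; Medium: Ham's F12 with 0.5% BSA, HEPES 25 mM, pH 7.4; Schedule: 3 h, 37 °C; Technique: bottom-read fluorescence, 550/595 nm.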
GSIS activator – primary screen for activators of insulin secretion dependent on glucose, INS-1E cells, GLuc reporter luminescence; activation, % at 16.6 µM; INS-1E GLuc reporter insulin secretion, 2-3 h; hit rate 0.61% among 370,000;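 active = lowest replicate activation of at least 40%, so every replicate reaches that level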;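 note: 0% = median of neutral control wells and 100% = median of IBMX positive control wells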
SR-BI HDL uptake – inhibitors of mouse SR-BI mediated HDL lipid uptake. Q61009. ldlA[mSR-BI] CHO cells, DiI-HDL uptake fluorescence, 3 h. inhibition, % at 12.5 µM. hit rate 0.96% among 320,000. AID 488896;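 active = mean replicate inhibition of at least 70% and a set share of replicates each scoring 70 or more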;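 note: 0% = median of neutral control wells and 100% = median of positive control wells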
* hit, by the source's call; / = not tested or not shown.

Letter code: A = UUG fidelity; B = SR-BI DiI-HDL act; C = GSIS activator; D = SR-BI HDL uptake
[1] C[C@@H]1CCCCO[C@H](CN(C)C(=O)c2ccncc2)[C@H](C)CN([C@@H](C)CO)C(=O)c2cc(NS(C)(=O)=O)ccc2O1
  A = -4 | B = / | C = 17 | D = /
[2] Cc1cccc(CN(C)C[C@H]2OCc3cn(nn3)CCCC(=O)N([C@H](C)CO)C[C@@H]2C)c1
  A = / | B = / | C = -8 | D = /
[3] CO[C@H]1CN(C)C(=O)c2ccc(NS(=O)(=O)C3CCCCC3)cc2OC[C@@H](C)NC[C@@H]1C
  A = / | B = / | C = 13 | D = /
[4] COc1ccc(NC(=O)Nc2ccc3c(c2)C(=O)N([C@@H](C)CO)C[C@H](C)[C@H](CN(C)Cc2ccc4c(c2)OCO4)OCCCC[C@H](C)O3)cc1
  A = 12 | B = / | C = -22 | D = /
[5] COCC(=O)Nc1ccc2c(c1)C(=O)N(C)[C@@H]1CC[C@H](CC(=O)NCCc3ccccc3)O[C@H]1CO2
  A = -16 | B = / | C = 16 | D = /
[6] COc1ccc(-c2csc(NC(=O)[C@H](C)N3C(=O)C4CC=CCC4C3=O)n2)cc1OC (stereo partly specified)
  A = 5 | B = -71 | C = 2 | D = 71*
[7] CCCNC(=O)N(C)C[C@@H]1Oc2ncc(C#CC3CC3)cc2C(=O)N([C@@H](C)CO)C[C@@H]1C
  A = -6 | B = / | C = -2 | D = /
[8] COc1cccc(S(=O)(=O)Nc2ccc3c(c2)C(=O)N(C)[C@@H]2CC[C@@H](CC(=O)O)O[C@H]2CO3)c1
  A = 8 | B = / | C = 2 | D = /
[9] Cn1ncc2c(N3CCC(Cc4ccccc4)CC3)ncnc21
  A = / | B = 16 | C = -12 | D = -16
[10] NNC(=O)c1cc2c(N3CCC(Cc4ccccc4)CC3)ncnc2s1
  A = / | B = -80 | C = 10 | D = 80*
[11] O=C(NNC(=O)c1cc2cc(Br)ccc2oc1=O)c1ccc(O)cc1O
  A = / | B = -83 | C = 1 | D = 83*
[12] C[C@@H](NC(=O)[C@@H]1N[C@@H]2c3ccc(-c4ccncc4)c(=O)n3C[C@@H]2[C@H]1CO)c1ccccc1
  A = / | B = / | C = 21 | D = /
[13] Cc1ccccc1OCc1nc(-c2ccc(NC(=O)c3ccc4c(c3)OCO4)cc2)no1
  A = -17 | B = -91 | C = / | D = 91*
[14] Cc1ccc2oc(-c3ccc(NC(=O)c4ccc5c(c4)OCO5)cc3)nc2c1
  A = -16 | B = -60 | C = 246* | D = 60
[15] C[C@H]1CN([C@@H](C)CO)S(=O)(=O)c2ccc(C#CC3CC3)cc2O[C@@H]1CN(C)Cc1cncnc1
  A = / | B = / | C = 9 | D = /
[16] Cc1ccc(C)c(Cn2c(O)c(N=NC(=S)Nc3ccccc3F)c3ccccc32)c1
  A = / | B = -84 | C = 19 | D = 84*
[17] Cc1ccccc1Cn1c(O)c(N=NC(=S)Nc2ccccc2F)c2ccccc21
  A = / | B = -46 | C = 6 | D = 46
[18] COc1ccc(NC(=O)Nc2cccc3c2O[C@H](CN(C)Cc2ccc(Oc4ccccc4)cc2)[C@@H](C)CN([C@H](C)CO)C3=O)cc1
  A = / | B = / | C = 1 | D = /
[19] N=C1/C(=C/c2cccn2CCOc2ccccc2)C(=O)N=C2SC=C(c3ccccc3)N12
  A = -11 | B = -75 | C = / | D = 75*
[20] CC1=CC2=NC(=O)/C(=C/c3cccn3Cc3ccccc3)C(=N)N2O1
  A = -10 | B = -27 | C = 12 | D = 27
[21] N=C1/C(=C/c2cccn2Cc2ccc(Cl)cc2)C(=O)N=C2SC=CN12
  A = / | B = -9 | C = 148* | D = 9
[22] COc1ccc2c3c([nH]c2c1)[C@H](CO)N(C(=O)Nc1ccc(F)cc1)CC31CCN(S(=O)(=O)c2cccs2)CC1
  A = / | B = / | C = 4 | D = /
[23] CCCCNc1c(-c2ccc(OC)c(SC3CCCCC3)c2)nc2cnccn12
  A = -2 | B = -27 | C = / | D = 27
[24] CCCCNc1c(-c2cccc(-c3ccc(OC)cc3)c2)nc2cc(C)ccn12
  A = -4 | B = -73 | C = / | D = 73*
[25] CCCCNc1c(-c2ccc(-c3ccc(C(C)=O)cc3)c(OC)c2)nc2cnccn12
  A = -20 | B = -73 | C = / | D = 73*
[26] O=C(NCCc1ccccc1)[C@H]1[C@H](CO)[C@H]2Cn3c(cccc3=O)[C@@H]1N2C(=O)C1CC1
  A = / | B = / | C = 8 | D = /
[27] Cc1c(Cl)cccc1N1C(=O)CC(N(O)c2ccccc2)C1=O (stereo unspecified)
  A = -8 | B = 218* | C = 5 | D = -218
[28] CCC(CC)NC(=O)c1ccccc1Oc1ccccc1
  A = -3 | B = 13 | C = 53* | D = -13
[29] CCC(C)(C)NC(=O)c1ccccc1Oc1ccccc1
  A = / | B = 0 | C = 12 | D = 0
[30] COc1ccc(-c2cc3cc(OC)c(OC)cc3cn2)cc1
  A = -8 | B = -79 | C = 7 | D = 79*
[31] COc1cc(OC)cc(-c2cc3ccc(OC)cc3cn2)c1
  A = -10 | B = -90 | C = -5 | D = 90*
[32] COc1cc2cnc(-c3ccccc3)cc2cc1OC
  A = 2 | B = -31 | C = 24 | D = 31
[33] C=Cc1ccc(N=Cc2c(O)ccc3ccccc23)cc1
  A = -3 | B = -75 | C = 11 | D = 75*
[34] Oc1ccccc1N=Cc1c(O)ccc2ccccc12
  A = -11 | B = -80 | C = -17 | D = 80*
[35] O=C(CSc1c(Cl)cccc1Cl)NC1CCCc2ccccc21 (stereo unspecified)
  A = 4 | B = -22 | C = 41* | D = 22
[36] O=C1c2cccnc2C(Nc2cccc(F)c2)N1Cc1ccco1 (stereo unspecified)
  A = -5 | B = 10 | C = 70* | D = -10
[37] CC(=O)c1cccc(NC2c3ncccc3C(=O)N2Cc2ccco2)c1 (stereo unspecified)
  A = -10 | B = 32 | C = 50* | D = -32
[38] CCCCCCCCCCCCCCCC(O)C[N+](C)(C)CCO (stereo unspecified)
  A = / | B = 9 | C = 363* | D = -9
[39] CCCCCC(O)CCCC(=O)O (stereo unspecified)
  A = -10 | B = 11 | C = 6 | D = -11
[40] CCOC(=O)c1cc(=O)n2[nH]c(-c3ccc(C)cc3)cc2n1
  A = -15 | B = 15 | C = / | D = -15
[41] CCOC(=O)Cc1cc(=O)n2[nH]c(-c3ccc(C)cc3)cc2n1
  A = -10 | B = -5 | C = 65* | D = 5
[42] C[C@@H]1CN([C@@H](C)CO)C(=O)Cc2cc(NC(=O)Nc3ccc(C(F)(F)F)cc3)ccc2O[C@@H]1CN(C)CC1CCCCC1
  A = 0 | B = / | C = -12 | D = /
[43] CCOc1cc2[nH]c(=S)n(C3CCN(Cc4ccccc4)CC3)c(=O)c2cc1OCC
  A = / | B = -75 | C = 17 | D = 75*
[44] COc1ccc(Cl)cc1/C=C/c1ccc2cccc(O)c2n1
  A = / | B = -83 | C = 3 | D = 83*
[45] COc1cc(Cl)cc(/C=C/c2ccc3cccc(O)c3n2)c1OC
  A = -22 | B = -50 | C = 7 | D = 50

Record cards, as listed above:
Profile of CCCCNc1c(-c2cccc(-c3ccc(OC)cc3)c2)nc2cc(C)ccn12 = UUG fidelity: -4; SR-BI DiI-HDL act: -73; GSIS activator: /; SR-BI HDL uptake: 73*
Profile of C[C@@H]1CN([C@@H](C)CO)C(=O)Cc2cc(NC(=O)Nc3ccc(C(F)(F)F)cc3)ccc2O[C@@H]1CN(C)CC1CCCCC1 = UUG fidelity: 0; SR-BI DiI-HDL act: /; GSIS activator: -12; SR-BI HDL uptake: /

The list goes on:
Letter code: A = UUG fidelity; B = SR-BI DiI-HDL act; C = GSIS activator; D = SR-BI HDL uptake
[46] COCc1ccc(C(=O)NC2CCSc3ccccc32)cc1 (stereo unspecified)
  A = -6 | B = / | C = 76* | D = /
[47] C=CCc1cccc(/C=N/NC(=O)CCC(=O)Nc2ccc(C)cc2)c1O
  A = -1 | B = 14 | C = 225* | D = -14
[48] Cc1ccc(NC(=O)CCC(=O)N/N=C/c2ccc(O)cc2O)cc1
  A = -14 | B = -11 | C = -4 | D = 11
[49] C[C@@H]1CN([C@@H](C)CO)S(=O)(=O)c2ccc(/C=C/c3ccccc3)cc2O[C@H]1CN(C)C(=O)c1ccncc1
  A = -9 | B = / | C = -47 | D = /
[50] COc1ccc(COc2cc(-c3cccc(OC)c3)nc3ccc(NC(=O)c4ccc(N(C)C)cc4)cc23)cc1
  A = 14 | B = -90 | C = / | D = 90*
[51] COc1ccc(-c2cccc(C(=O)Nc3ccc(C)cc3)c2)cc1
  A = 3 | B = -48 | C = 99* | D = 48
[52] COc1ccc(COc2cc(-c3cccc(OC)c3)nc3ccc(NC(=O)c4ccc(C)cc4)cc23)cc1
  A = -8 | B = -72 | C = 6 | D = 72*
[53] COc1ccc(COc2cc(-c3cccc(OC)c3)nc3ccc(NC(C)=O)cc23)cc1
  A = -15 | B = -33 | C = -1 | D = 33
[54] C[C@H](CO)N1C[C@H](C)[C@@H](CN(C)Cc2ccc(Oc3ccccc3)cc2)Oc2c(NC(=O)Cc3ccccc3)cccc2C1=O
  A = / | B = / | C = -4 | D = /
